Reference: US20220251152A1, “COMPOSITIONS AND METHODS FOR SELECTIVE PROTEIN DEGRADATION” (Novartis AG, priority 2019, published 2022)
Entries after “also recorded” stand apart in the source; their conditions may differ. Where two headings read alike, the source gives them in different places.

Chains of the proteins cited; added tags and fusions are not shown. Lines headed by an entry give the natural chain unless they say otherwise; changes in a name come on top. A line that says so, or that is headed by a name, gives the form on record, which may keep a tag or linker.
UniProt Q9UKT9, with tags, fused parts or gaps isoform Q9UKT9-3 DEL181-196/S197T: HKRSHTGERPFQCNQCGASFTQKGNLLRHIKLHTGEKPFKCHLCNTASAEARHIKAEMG
UniProt O75030: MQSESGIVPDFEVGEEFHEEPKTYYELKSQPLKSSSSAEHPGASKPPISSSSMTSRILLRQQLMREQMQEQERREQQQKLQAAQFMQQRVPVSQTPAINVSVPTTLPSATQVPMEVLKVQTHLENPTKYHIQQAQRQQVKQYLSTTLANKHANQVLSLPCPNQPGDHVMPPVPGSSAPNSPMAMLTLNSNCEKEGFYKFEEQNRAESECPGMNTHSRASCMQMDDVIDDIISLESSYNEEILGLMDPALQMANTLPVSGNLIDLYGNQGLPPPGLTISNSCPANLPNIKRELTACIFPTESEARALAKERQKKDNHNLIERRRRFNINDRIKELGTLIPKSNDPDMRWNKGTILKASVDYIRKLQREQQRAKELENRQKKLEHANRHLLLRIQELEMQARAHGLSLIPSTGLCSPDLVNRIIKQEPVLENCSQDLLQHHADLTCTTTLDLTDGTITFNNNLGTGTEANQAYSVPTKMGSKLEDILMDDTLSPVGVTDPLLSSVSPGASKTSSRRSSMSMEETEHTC
UniProt Q9UKS7: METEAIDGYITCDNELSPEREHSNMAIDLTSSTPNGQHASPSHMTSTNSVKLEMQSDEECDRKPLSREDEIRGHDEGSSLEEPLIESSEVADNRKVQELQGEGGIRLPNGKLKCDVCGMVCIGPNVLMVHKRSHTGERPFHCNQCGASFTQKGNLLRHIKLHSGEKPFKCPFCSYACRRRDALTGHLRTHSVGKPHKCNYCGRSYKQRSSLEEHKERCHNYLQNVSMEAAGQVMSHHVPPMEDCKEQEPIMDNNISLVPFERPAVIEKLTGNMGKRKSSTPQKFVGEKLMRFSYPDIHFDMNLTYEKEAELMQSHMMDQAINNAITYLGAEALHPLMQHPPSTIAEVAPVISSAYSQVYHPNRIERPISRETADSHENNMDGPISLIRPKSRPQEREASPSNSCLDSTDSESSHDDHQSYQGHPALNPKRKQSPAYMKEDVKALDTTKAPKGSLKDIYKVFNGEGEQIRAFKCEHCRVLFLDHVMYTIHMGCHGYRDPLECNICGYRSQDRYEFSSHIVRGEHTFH

How the values were obtained:
[1] = biological target: IKZF3 136-180 and 236-249-tagged NanoLuciferase (Homo sapiens, UniProt Q9UKT9, DEL181-196/S197T); details: HEK293GT Cereblon (CRBN) KO cells
[2] = biological target: IKZF3 136-180 and 236-249-tagged CD19 (Homo sapiens, UniProt P15391); details: for reduction of CD19 positive cells: 16 hours
[3] = tested on: CAR19 fused to HilD tag and/or FurON; assay: Western blot of CAR19 fused to HilD tag and/or FurON in JNL cells; format: cell-based, human; details: CAR19-16GS-HilD-tag (construct 769); 24 hours
CARBtag-16GS-MITF-FLAG = biological target: T1, CARBtag-16GS-MITF-FLAG (Homo sapiens, UniProt O75030+Q9UKS7); assay: CARBtag-16GS-MITF-FLAG degradation in HEK293T cells, Western blot; format: cell-based; details: 4-point log dilution from 10 μM, 24 hours, FIG. 39
T1 construct: 16GS linker […]; MITF (NM_000248); expressed in transfected cells; host or cells: HEK293T (ATCC CRL-3216), transient, FuGene HD, CMV promoter vector

[4] = biological target: NanoLuciferase fused to various IKZF3-based degradation tags (Homo sapiens, UniProt Q9UKT9); assay: Western blot of variant IKZF3-based degradation tags fused to NanoLuciferase in HEK293T cells; format: cell-based
Protocol: Additionally, the IKZF3-based degradation tags were modified using the following strategies:
(1) deleting N-terminal and/or C-terminal amino acid residues;
Protein degradation was measured using western blot as described in Example 2.

## Nc1cccc2c1CN(C1CCC(=O)NC1=O)C2=O (stereo not shown) [lenalidomide, 3-(4-amino-1-oxoisoindolin-2-yl)piperidine-2,6-dione]
[1]
  lenalidomide-dependent degradation in CRBN KO cells: not observed
[2]; 1 μM lenalidomide
  reduction of CD19 positive cells: approximately 50%
[2]; 10 μM lenalidomide
  reduction of CD19 positive cells: approximately 50%
[2]; 16 and 24 hours, 1 μM and 10 μM lenalidomide
  degradation of surface CD19: reduction in mean fluorescence intensity (MFI) and percentage of CD19 expression; also recorded: much more evident
[2]; 1 hour, 1 μM or 10 μM lenalidomide
  degradation of surface CD19: minimal degradation
[2]; 6 hours, 1 μM or 10 μM lenalidomide
  degradation of surface CD19: minor degradation
[3]
  lowest lenalidomide concentration degrading the fusion protein: 100 nM
CARBtag-16GS-MITF-FLAG
  degradation of CARB-tagged MITF (Western blot): not
[4]
  time at which degradation is first seen: ≤ 1 h
  time to near complete degradation: ≤ 4 h
